What was measured:
[1] = target: cation-independent mannose-6-phosphate receptor (CIMPR); test: CIMPR affinity chromatography of purified ATB200 rhGAA from different production batches
[2] = target: cation-independent mannose-6-phosphate receptor (CIMPR); test: M6P receptor (CIMPR) plate binding assay
[3] = target: cation-independent mannose-6-phosphate receptor (CIMPR); test: CIMPR affinity column, elution with a free M6P gradient, fractions read by GAA activity (4MU-α-glucose)

percent CIMPR receptor binding [1] | Kd [2] | percent of rhGAA bound to CIMPR (eluted with M6P) [3] | percent of rhGAA that did not bind to the CIMPR [3] | Substance
70% | 2 to 4 nM | – | – | ATB200 rhGAA (recombinant human acid α-glucosidase produced in CHO cell line GA-ATB-200) (from UniProt P10253 57-952) (enzyme)
– | – | 22% | 78% | Lumizyme® (alglucosidase alfa, conventional rhGAA) (from UniProt P10253 57-952) (enzyme)
– | – | 27% | 73% | Myozyme® (alglucosidase alfa, conventional rhGAA) (from UniProt P10253 57-952) (enzyme)
